Assay results: PubChem BioAssay AID1259399 (Fisher Drug Discovery Resource Center, 2018)
Several values for one entry are separate records, joined by “and”; a condition that tells them apart may be missing. Equal values may be shown once. The list shows a part of the results, in another mix than the full data. Activity calls are given as the source filed them. No stated cut-off is given here; in the data, active means inhibition above about 40%; inactive means the rest.

The chains behind the UniProt entries cited, without tags or fusion partners.
UniProt Q8C6L5, whole entry, looked up: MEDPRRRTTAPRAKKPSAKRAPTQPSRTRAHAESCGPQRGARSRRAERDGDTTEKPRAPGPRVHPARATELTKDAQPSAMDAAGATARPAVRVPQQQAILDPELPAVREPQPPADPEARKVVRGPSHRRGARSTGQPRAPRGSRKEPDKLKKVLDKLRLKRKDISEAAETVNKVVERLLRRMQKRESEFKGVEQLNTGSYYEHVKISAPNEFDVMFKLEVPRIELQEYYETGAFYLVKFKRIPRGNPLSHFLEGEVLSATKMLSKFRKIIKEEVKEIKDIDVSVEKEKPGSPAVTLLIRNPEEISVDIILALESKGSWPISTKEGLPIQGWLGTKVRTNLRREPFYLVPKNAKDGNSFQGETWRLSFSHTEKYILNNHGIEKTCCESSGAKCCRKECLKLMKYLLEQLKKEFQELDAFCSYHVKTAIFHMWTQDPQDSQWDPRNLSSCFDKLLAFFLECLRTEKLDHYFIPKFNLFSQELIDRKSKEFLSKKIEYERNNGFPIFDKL

target: Cyclic GMP-AMP synthase (Mus musculus) (UniProt Q8C6L5); test: cyclic GMP-AMP synthase inhibitors, mouse, primary biochemical chemiluminescence (AID 1259399); details: recombinant cGAS, Kinase-Glo ATP depletion luminescence; at 12.5 µM; active compounds read high;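 further: 0% = negative control wells and 100% = reference inhibitor with no enzyme activity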

SMILES	inhibition
BrC1CSc2nc3ccccc3n2C1c1ccccc1 (stereo not drawn)	inactive: -1.45%
O=[N+]([O-])c1ccc(-c2csc(NP3(=O)C=C(c4ccccc4)OC(c4ccccc4)=C3)n2)cc1	inactive: -7.35%
CN1CC(=O)NC1=NP(=O)(OCc1ccccc1)OCc1ccccc1	inactive: -4.15%
CN(CCCl)Cc1cc(Cl)c(NC2=NCCN2)c(Cl)c1	inactive: -3.11%
ClCCNC1C2CC3CC(C2)CC1C3 (stereo not drawn)	inactive: -3.42%
CN(C(=O)Cc1ccc(Cl)c(Cl)c1)[C@@H]1CC[C@]2(CCCO2)C[C@H]1N1CCCC1	inactive: -4.06%
COc1cc(-n2cnnn2)ccc1-n1cnnn1	inactive: -2.31%
O=P(Nc1nccs1)(c1ccccc1)c1nc2ccccc2s1 (stereo not drawn)	inactive: 0.949%
COc1cccc(OP(=NC(=S)N2CCOCC2)(C(C)(C)C)C(C)(C)C)c1	inactive: -3.66%
CN(C(=O)Cc1ccccc1)[C@@H]1CC[C@]2(CCCO2)C[C@H]1N1CCCC1	inactive: -3.61%
CCOP1(=S)c2c(C)nn(-c3ccccc3)c2N=C(c2ccc(F)cc2)N1C (stereo not drawn)	inactive: -8.04%
N#CCOC(=O)C(O)(c1ccccc1)c1ccccc1	inactive: -1.17%
O=P1(Nc2nc(-c3ccccc3)cs2)C=C(c2ccccc2)OC(c2ccccc2)=C1	inactive: -4.22%
Nc1nonc1OCCOc1nonc1N	inactive: -1.88%
CCCOP(=O)(OCCC)O/C(C)=C/SC#N	inactive: -6.98%
N#Cc1ccc(-c2csc(NP3(=O)C=C(c4ccccc4)OC(c4ccccc4)=C3)n2)cc1	inactive: -5.74%
O=P(Nc1nccs1)(c1ccc(Br)cc1)c1ccc(Br)cc1	inactive: -2.06%

SMILES	inhibition
CCOP1(=S)c2c(C)nn(-c3ccccc3)c2N=C(c2ccccc2F)N1C (stereo not drawn)	inactive: -7.32%
Cc1ccc(NC(=O)COC(=O)C(C)(O)c2cccc(F)c2)c(C)c1 (stereo not drawn)	inactive: -10.4%
CCN(CC)C1=NP(=O)(c2ccccc2)NC(c2ccccc2)=C1C#N (stereo not drawn)	inactive: -5.93%
Cc1c2non([O-])c-2c(C)[n+](=O)[n+]1[O-]	inactive: -6.94%
O=P(O)(O)F	inactive: -3.47%
COP1(=S)c2c(C)nn(-c3ccccc3)c2N=C(c2ccc(F)cc2)N1C (stereo not drawn)	inactive: -5.55%
COc1cc(Br)c([N+](=O)[O-])nc1[N+](=O)[O-]	inactive: 22.7%
CN(C(=O)Cc1ccc(Cl)c(Cl)c1)[C@H]1CCCC[C@@H]1N1CCCC1	inactive: -1.19% and inactive: -2.76%
O=P(C=C(Cl)c1ccccc1)(C=C(Cl)c1ccccc1)Nc1nncs1	inactive: -3.26%
CN(C(=O)Cc1ccc(Cl)c(Cl)c1)[C@@H]1CCCC[C@@H]1N1CCCC1	inactive: -5.1%
O=P1(Nc2nncs2)C=C(c2ccccc2)SC(c2ccccc2)=C1	inactive: -3.55%
Cc1c([N+](=O)[O-])c([N+](=O)[O-])nn1CC(=O)Nc1ccc([N+](=O)[O-])cc1Cl	inactive: -8.25%
O=P(Nc1nccs1)(c1ccccc1)c1ccccc1	inactive: -6.9%
O=P1(Nc2nc(-c3ccc(F)cc3)cs2)C=C(c2ccccc2)OC(c2ccccc2)=C1	inactive: -4.12%
BrCC1CN=C(N2CCOCC2)S1 (stereo not drawn)	inactive: -3.33%
CCOC(=O)NC(Sc1nc2ccccc2o1)C(Cl)(Cl)Cl (stereo not drawn)	inactive: -5.47%
